Bioassay records deposited in PubChem by National Center for Advancing Translational Sciences (NCATS).
TDP1 block: inhibitors of human tyrosyl-DNA phosphodiesterase TDP1; Potency, µM (series often up to 130 µM), for inactives: top-dose activity change, negative = inhibition, most hits filed as inhibitors; recombinant TDP1, AlphaScreen DNA substrate cleavage; hit rate 0.28% among 350,000; AID 485290; also: potency is read from the fitted curve at half-maximal effect; % is scaled to controls: 0 for no effect and ±100 for the full control effect; nearly all actives have a fitted effect of over 40% in size
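Tdp1 1 nM final; 15 min RT w/ cpd; substrate 15 nM, 5 min; beads 10 ug/ml, 10 min; AlphaScreen read. Neg ctrl: no enzyme.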
uPA surface inh: cell surface uPA generation inhibition | cell surface uPA generation assay, qHTS | Potency, µM (doses to about 38.3 µM), for the others: at the highest dose activity change, negative = inhibition, actives largely listed as inhibitors | hit rate 0.31% among 330,000 | AID 540303; active = well fitted inhibition curve with a large enough effect; inconclusive = small, poorly fitted or top-dose-only effect; inactive = no such curve, though single readings can be large or run the other way; tested in mouse RAW 264.7 cells; also: potency is read from the fitted curve at half-maximal effect; % is scaled to controls: 0 for no effect and ±100 for the full control effect; nearly all actives have a fitted effect of over 55% in size
TDP1 cell CPT: growth inhibition of DT40 Tdp1-/-;hTDP1 cells with camptothecin (screen for TDP1 inhibitors). chicken DT40 Tdp1-/-;hTDP1 cells + 20 nM CPT, ATP luminescence, 48 h. Potency, µM (doses to about 46.2 µM), inactives show at the top dose activity change, negative = growth inhibition, hits mostly inhibitors. hit rate 12% among 420,000; also: potency is read from the fitted curve at half-maximal effect; % is scaled to controls: 0 for no effect and ±100 for the full control effect; nearly all actives have a fitted effect of over 55% in size
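Cell growth measured by CellTiter-Glo luminescence after a minimum 48 h, 37 C compound exposure with 20 nM CPT in Tdp1-knockout DT40 cells stably expressing hTDP1, seeded 400/well; qHTS titration format.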
miR-21 reporter: miR-21 reporter, rising signal; HeLa miR-21 FLuc reporter, luciferase, 48 h; Potency, µM (doses to about 38.3 µM), for inactives: at the highest dose reporter change, positive = more light; 340,000 tested, under 10 active; AID 2288; active = well fitted rising curve with a large enough effect; inconclusive = small, poorly fitted or top-dose-only effect; inactive = no such curve, though single readings can be large or run the other way;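 further: % of control where 0% means no effect; miR-21 action dims this reporter so a rising signal means less miR-21 action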
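HeLa miR-21-FLuc reporter line, endogenous miR-21; 2000 cells/well in DMEM/10% FBS; compound titration up to ~40uM final, 48 h, 37 degree Celsius; luciferase detection reagent, 15 min lysis, CCD luminescence.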
DT40 TDP1 no CPT: qHTS for Inhibitors of human tyrosyl-DNA phosphodiesterase 1 (TDP1): qHTS in cells in absence of CPT; Potency, µM (doses to about 46.2 µM), without a hit: at the top dose activity change, negative = growth inhibition, hits mostly inhibitors; AID 686978, 2013; hit rate 15% among 420,000; DT40 Tdp1-/- hTDP1 cells, no CPT, ATP luminescence, 48 h; also: potency is read from the fitted curve at half-maximal effect; % is scaled to controls: 0 for no effect and ±100 for the full control effect; nearly all actives have a fitted effect of over 55% in size
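Readout: luminescence from CellTiter-Glo after 30 min in the dark at RT. Cells: DT40 Tdp1-/- with stable hTDP1, 400/well. Exposure: compounds alone, ≥48 hr, 37 °C.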
* hit, by the source's call; ? = inconclusive; . = no result given. Shown are actives, neighbours in structure and some others; about 16% of the full set was active somewhere. Unless noted, calls follow the shape of the dose curve; as a rule, active = well fitted curve in the direction sought with a large enough effect; inconclusive = small, poorly fitted or top-dose-only effect, or another doubt; inactive = no such curve, though single readings can be large; an effect the other way counts as inactive or inconclusive.

#1 CCOC(=O)Cn1c(=O)n(C2CCCCC2)c2nc(-c3ccc(C(C)C)cc3)nc(C(N)=O)c21
#2 CCSc1ncc(Cl)c(C(=O)Nc2ccc(S(=O)(=O)N(C)c3ccccc3)cc2)n1
#3 CCN(c1ccccc1)S(=O)(=O)c1ccc(NC(=O)c2nc(S(C)(=O)=O)ncc2Cl)cc1
#4 CCS(=O)(=O)c1ncc(Cl)c(C(=O)Nc2ccc(S(=O)(=O)N(C)c3ccccc3)cc2)n1
#5 CCN(c1ccccc1)S(=O)(=O)c1ccc(NC(=O)c2ccco2)cc1
#6 CN(c1ccccc1)S(=O)(=O)c1ccc(NC(=O)c2ccco2)cc1
#7 CC(=O)N1CCOc2ccc(S(=O)(=O)N3CCC(C(=O)NCc4ccc(F)cc4)CC3)cc21
#8 CCN1C(=O)CS/C1=N\S(=O)(=O)c1ccccc1

Compound	1	2	3	4	5	6	7	8
TDP1 block	5%	1%	5%	6%	3%	-3%	-1%	0%
uPA surface inh	.	.	?	2%	47%	3%	-4%	0%
TDP1 cell CPT	.	12µM*	1.2µM*	0.73µM*	?	-7%	3%	-20%
miR-21 reporter	-1%	19%	?	?	10%	-2%	4%	-4%
DT40 TDP1 no CPT	.	12µM*	1µM*	0.65µM*	?	-23%	4%	-6%

Complete entries, looked up by structure. Values in the order: TDP1 block | uPA surface inh | TDP1 cell CPT | miR-21 reporter | DT40 TDP1 no CPT
`CCOC(=O)Cn1c(=O)n(C2CCCCC2)c2nc(-c3ccc(C(C)C)cc3)nc(C(N)=O)c21` across the screens: 5% | . | . | -1% | .
`CCN(c1ccccc1)S(=O)(=O)c1ccc(NC(=O)c2ccco2)cc1` across the screens: 3% | 47% | ? | 10% | ?
`CC(=O)N1CCOc2ccc(S(=O)(=O)N3CCC(C(=O)NCc4ccc(F)cc4)CC3)cc21` across the screens: -1% | -4% | 3% | 4% | 4%

Further compounds follow.
#9 O=C(CSc1nc(-c2cccs2)cc(C(F)(F)F)n1)Nc1cc(OCC(F)(F)F)cc([N+](=O)[O-])c1
#10 Cc1cccc(C)c1NC(=O)CSc1nc(-c2cccs2)cc(C(F)(F)F)n1
#11 CC(C)(C)c1ccccc1NC(=O)CSc1nc(-c2cccs2)cc(C(F)(F)F)n1
#12 CCOc1ccccc1NC(=O)CSc1nc(-c2cccs2)cc(C(F)(F)F)n1
#13 COc1ccc(NC(=O)CSc2nc(-c3cccs3)cc(C(F)(F)F)n2)cc1OC
#14 O=C(CC12CC3CC(CC(Br)(C3)C1)C2)NC1=NCCS1
#15 CCC1(CC)NC(=O)N(CC(=O)OCC(=O)Nc2ccccc2OC(F)F)C1=O
#16 O=C(O)CSc1nc(-c2cccs2)cc(C(F)(F)F)n1

Compound	9	10	11	12	13	14	15	16
TDP1 block	2%	0%	5%	-3%	4%	2%	1%	3%
uPA surface inh	-1%	.	.	.	.	4%	2%	-1%
TDP1 cell CPT	?	15µM*	21µM*	-5%	4.6µM*	0%	-12%	0%
miR-21 reporter	-1%	-1%	1%	-4%	15%	2%	.	-3%
DT40 TDP1 no CPT	18µM*	18µM*	?	-28%	2.3µM*	-5%	17%	-19%

#17 O=C(NC(=O)c1ccccc1F)Nc1nc(-c2cccs2)cc(C(F)(F)F)n1
#18 Cc1c(C(=O)Nc2ccc(F)cc2F)nnn1-c1ccccc1Br
#19 Cc1cccc(C)c1NC(=O)CN(C)C(=O)c1ccc(-n2cncn2)c([N+](=O)[O-])c1
#20 COc1ccc(C(CNC(=O)COc2ccc(Br)cc2F)N2CCCC2)cc1 (configuration not stated)
#21 O=C(NCc1ccccc1CN1CCCC1)c1cc2cc(Cl)ccc2o1
#22 COc1ccc2oc(C(=O)OC(C)C(=O)N3C(C)CCCC3C)c(C)c2c1 (configuration not stated)
#23 COc1ccc(C(CNC(=O)c2oc3ccc(Br)cc3c2C)N2CCCCC2)cc1 (configuration not stated)
#24 COc1ccc2oc(C(=O)NN3C(C)CCCC3C)c(C)c2c1 (configuration not stated)

Compound	17	18	19	20	21	22	23	24
TDP1 block	5%	9%	-2%	3%	0%	0%	5%	6%
uPA surface inh	?	.	-4%	-1%	-10%	-2%	-2%	14%
TDP1 cell CPT	23µM*	10µM*	7%	-16%	18µM*	?	13µM*	?
miR-21 reporter	-19%	1%	.	-4%	.	.	-4%	-3%
DT40 TDP1 no CPT	?	13µM*	1%	-26%	?	21µM*	9.2µM*	?

#25 COc1ccc(C(CNC(=O)COc2ccc(F)cc2Cl)N2CCCCC2)cc1 (configuration not stated)
#26 COc1ccc(C(CNC(=O)Cc2ccccc2)N2CCCCC2)cc1 (configuration not stated)
#27 COc1ccc(C(CNC(=O)C(C)Oc2ccc(Br)cc2)N2CCCCC2)cc1 (configuration not stated)
#28 COc1ccc(C(CNC(=O)c2oc3ccc(OC)cc3c2C)N2CCCC2)cc1 (configuration not stated)
#29 CCc1ccc2oc(C(=O)NCC(c3ccc(OC)cc3)N3CCCCC3)c(C)c2c1 (configuration not stated)
#30 COc1ccc(C(CNC(=O)c2oc3ccc(F)cc3c2C)N2CCCCC2)cc1 (configuration not stated)
#31 COc1ccc(C(CNC(=O)c2cc3ccccc3cc2OC)N2CCCC2)cc1 (configuration not stated)
#32 COc1ccc(C(CNC(=O)c2oc3cc(C)c(C)cc3c2C)N2CCCCC2)cc1 (configuration not stated)

Compound	25	26	27	28	29	30	31	32
TDP1 block	0%	.	1%	0%	8%	1%	4%	6%
uPA surface inh	0%	.	-10%	-7%	-1%	-9%	0%	-2%
TDP1 cell CPT	23µM*	?	18µM*	23µM*	23µM*	?	?	13µM*
miR-21 reporter	.	-4%	.	.	0%	26%	6%	1%
DT40 TDP1 no CPT	21µM*	?	21µM*	16µM*	16µM*	?	?	9.2µM*

#33 CCOc1ccc2oc(C(=O)NCC(c3ccco3)N(C)C)c(C)c2c1 (configuration not stated)
#34 COc1ccc(C(CNC(=O)c2oc3cc(Br)ccc3c2C)N2CCCCC2)cc1 (configuration not stated)
#35 COc1ccc(C(CNC(=O)c2ccc(F)cc2)N2CCCC2)cc1 (configuration not stated)
#36 COc1ccc2oc(C(=O)NCc3ccccc3CN3CCCC3)c(C)c2c1
#37 COc1ccccc1C(NC(=O)CC(C)C)c1c(O)ccc2ccccc12 (configuration not stated)
#38 CC1(C(=O)NS(=O)(=O)c2ccc(F)cc2F)CCN1C(=O)c1cccc(F)c1 (configuration not stated)
#39 C=CCNc1ccc(N2C(=O)C3CCC(C)CC3C2=O)cc1[N+](=O)[O-] (configuration not stated)
#40 CC(=O)N1N=C(N)SC12CCCC2
#41 CCOc1ccc(NC(=O)Cc2cccc3ccccc23)c([N+](=O)[O-])c1
#42 Cc1ccnc(NC(=O)c2ccc(Cl)c(NC(=O)c3ccccc3C)c2)c1

Compound	33	34	35	36	37	38	39	40	41	42
TDP1 block	3%	6%	5%	1%	3%	.	7%	-1%	8%	7%
uPA surface inh	6%	6%	.	-8%	11%	.	.	4%	6%	-2%
TDP1 cell CPT	16µM*	16µM*	-28%	21µM*	?	-11%	.	-1%	-1%	?
miR-21 reporter	.	-2%	-7%	.	-3%	.	-5%	2%	-10%	-11%
DT40 TDP1 no CPT	23µM*	23µM*	-29%	?	-24%	-2%	.	2%	?	?
